In paper PMC8632000, “Dose Tailoring of Vancomycin Through Population Pharmacokinetic Modeling Among Surgical Patients in Pakistan” (Frontiers in Pharmacology, 2021):

Experiment: Population pharmacokinetic model (NONMEM) of vancomycin plasma concentration-time data in surgical patients
Conditions: one-compartment final model; clearance at a CRCL of 101.15 mL/min and weight of 75 kg; 58 patients

For `CN[C@H](CC(C)C)C(=O)N[C@H]1C(=O)N[C@@H](CC(N)=O)C(=O)N[C@H]2C(=O)N[C@H]3C(=O)N[C@H](C(=O)N[C@H](C(=O)O)c4cc(O)cc(O)c4-c4cc3ccc4O)[C@H](O)c3ccc(c(Cl)c3)Oc3cc2cc(c3O[C@@H]2O[C@H](CO)[C@@H](O)[C@H](O)[C@H]2O[C@H]2C[C@](C)(N)[C@H](O)[C@H](C)O2)Oc2ccc(cc2Cl)[C@H]1O` [Vancomycin], the “CL, final estimate” value was 2.45 L/h.
